Laboratory results taken from US20100048498A1, “STABLE NON-DIHYDRATE AZITHROMYCIN ORAL SUSPENSIONS” (priority 2004, published 2010).

Experiment: Effects of flavoring components upon azithromycin form F conversion in constituted POS
Type: physicochemical
Conditions: room temperature
Experimental: An identical test was also performed using form F azithromycin. The calculated solvent levels were again used to create solutions of these single components in water and used to constitute samples of POS formulation I using form F. The constituted drug suspensions were stored at room temperature for 24-hours, before being filtered and analyzed by SS-NMR for quantification of azithromycin form change over this interval. POS formulation II was constituted with water and stored identically to serve as a control for this experiment. The design and results of this investigation can be seen in Table 9.

[1] = Formulation I constituted with 18 mL 0.0577 mg/ml benzaldehyde
[2] = Formulation I constituted with 18 mL 0.922 mg/ml 3-methyl-butyl acetate + 0.0577 mg/ml benzaldehyde
[3] = Formulation I constituted with 18 mL 0.922 mg/ml 3-methyl-butyl acetate
[4] = Formulation I constituted with 18 mL 1.666 mg/ml 3-methyl-butyl acetate
[5] = Formulation II constituted with 18 mL Water

% A (SS-NMR Evaluation after 24 hrs constitution) [1]: 0%
% G (SS-NMR Evaluation after 24 hrs constitution) [1]: 0%
% A (SS-NMR Evaluation after 24 hrs constitution) [2]: 6%
% G (SS-NMR Evaluation after 24 hrs constitution) [2]: 0%
% A (SS-NMR Evaluation after 24 hrs constitution) [3]: 0%
% G (SS-NMR Evaluation after 24 hrs constitution) [3]: 0%
% A (SS-NMR Evaluation after 24 hrs constitution) [4]: 5%
% G (SS-NMR Evaluation after 24 hrs constitution) [4]: 0%
% A (SS-NMR Evaluation after 24 hrs constitution) [5]: 59%
% G (SS-NMR Evaluation after 24 hrs constitution) [5]: 41%
Compound: CCC1OC(=O)C(C)C(O[C@H]2C[C@@](C)(OC)[C@@H](O)C(C)O2)C(C)[C@@H](OC2OC(C)CC(N(C)C)[C@H]2O)[C@@](C)(O)C[C@@H](C)CN(C)[C@H](C)[C@@H](O)[C@]1(C)O (stereo partly shown) [Form F, azithromycin monohydrate hemi-ethanol solvate]
